From patent publication EP0604354B1, “Antidepressant and antiparkinsonian compounds” (N[…]/S, priority 1992, dated 1994)

By UniProt entry, the sequences of proteins in these tests, tags left out.
UniProt P23977, whole entry: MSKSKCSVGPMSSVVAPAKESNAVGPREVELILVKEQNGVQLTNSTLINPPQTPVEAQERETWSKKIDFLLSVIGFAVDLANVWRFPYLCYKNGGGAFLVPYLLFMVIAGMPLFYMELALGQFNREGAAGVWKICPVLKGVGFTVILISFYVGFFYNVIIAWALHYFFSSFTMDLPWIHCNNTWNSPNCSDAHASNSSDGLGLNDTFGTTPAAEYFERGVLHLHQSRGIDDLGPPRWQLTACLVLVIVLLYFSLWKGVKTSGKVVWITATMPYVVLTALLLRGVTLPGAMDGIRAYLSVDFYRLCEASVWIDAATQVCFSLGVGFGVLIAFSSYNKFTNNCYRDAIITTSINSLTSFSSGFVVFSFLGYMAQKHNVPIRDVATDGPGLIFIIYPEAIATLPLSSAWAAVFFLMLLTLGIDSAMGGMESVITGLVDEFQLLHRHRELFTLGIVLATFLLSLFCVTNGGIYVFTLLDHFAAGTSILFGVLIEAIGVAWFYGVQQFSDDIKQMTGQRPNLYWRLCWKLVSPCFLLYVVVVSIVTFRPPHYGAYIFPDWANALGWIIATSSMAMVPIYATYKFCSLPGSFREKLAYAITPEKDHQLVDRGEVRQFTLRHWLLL

Target: T1, reuptake of dopamine in synaptosomes of rat forebrain (Rattus norvegicus, UniProt P23977)
T1 construct: Fresh whole forebrain (at 0-4°C) from male Wistar rats (150-200 g) is homogenized; from tissue; host or cells: male Wistar rat whole forebrain, crude synaptosomal supernatant
Test: inhibition of reuptake of 3H-dopamine in synaptosomes of rat forebrain
Type: biochemical
Details: potency ratio versus Win 35,428
Experimental: The homogenate is centrifuged at 1000 x g (∼ 2900 rpm) for 10 min.
A Krebs Buffer (119 mM NaCI, 24 mM NaHCO3, 2.1 mM KCI, 1.2 mM KH2PO4, 1.8 mM CaCl2, 2 mM MgSO4, 7H2O, 12 mM glucose) is equilibrated with an atmosphere of 96% O2: 4% CO2 for at least 60 min at 37°C. To 5 ml Krebs-buffer 100 µl of the radioactivity is added (3H-dopamine 1 x 10^-9M final concentration) and 100 µl test substance solution and 200 µl of tissue suspension.

Compound: COC(=O)[C@@H]1[C@@H](c2ccc(F)cc2)C[C@@H]2CC[C@H]1N2C [trans isomer of Win 35,428, reference compound]
- less potent as compared to the cis isomer (Win 35,428) as a dopamine reuptake inhibitor: ~50 times
